Values quoted from earlier work in patent US6803479B2, “Reagents and method for spatio-temporal control of gene expression by illumination” (University of Maryland Biotechnology Institute, priority 2001, dated 2004).

What was measured:
[1] = molecular target: T1, chimeric transactivator (mutant progesterone receptor ligand binding domain-GAL4-VP16) (Homo sapiens, UniProt P06401); conditions: in vitro; cited from earlier work
[2] = molecular target: T1, chimeric transactivator (mutant progesterone receptor ligand binding domain-GAL4-VP16); conditions: transgenic mice, single intraperitoneal injection of suspension in oil at 250 μg/kg body weight; cited from earlier work
[3] = molecular target: T2, human progesterone receptor with a C-terminal 42-aa deletion (Homo sapiens, UniProt P06401); conditions: cited from earlier work
T2 sequence (P06401 1-891 limits assumed): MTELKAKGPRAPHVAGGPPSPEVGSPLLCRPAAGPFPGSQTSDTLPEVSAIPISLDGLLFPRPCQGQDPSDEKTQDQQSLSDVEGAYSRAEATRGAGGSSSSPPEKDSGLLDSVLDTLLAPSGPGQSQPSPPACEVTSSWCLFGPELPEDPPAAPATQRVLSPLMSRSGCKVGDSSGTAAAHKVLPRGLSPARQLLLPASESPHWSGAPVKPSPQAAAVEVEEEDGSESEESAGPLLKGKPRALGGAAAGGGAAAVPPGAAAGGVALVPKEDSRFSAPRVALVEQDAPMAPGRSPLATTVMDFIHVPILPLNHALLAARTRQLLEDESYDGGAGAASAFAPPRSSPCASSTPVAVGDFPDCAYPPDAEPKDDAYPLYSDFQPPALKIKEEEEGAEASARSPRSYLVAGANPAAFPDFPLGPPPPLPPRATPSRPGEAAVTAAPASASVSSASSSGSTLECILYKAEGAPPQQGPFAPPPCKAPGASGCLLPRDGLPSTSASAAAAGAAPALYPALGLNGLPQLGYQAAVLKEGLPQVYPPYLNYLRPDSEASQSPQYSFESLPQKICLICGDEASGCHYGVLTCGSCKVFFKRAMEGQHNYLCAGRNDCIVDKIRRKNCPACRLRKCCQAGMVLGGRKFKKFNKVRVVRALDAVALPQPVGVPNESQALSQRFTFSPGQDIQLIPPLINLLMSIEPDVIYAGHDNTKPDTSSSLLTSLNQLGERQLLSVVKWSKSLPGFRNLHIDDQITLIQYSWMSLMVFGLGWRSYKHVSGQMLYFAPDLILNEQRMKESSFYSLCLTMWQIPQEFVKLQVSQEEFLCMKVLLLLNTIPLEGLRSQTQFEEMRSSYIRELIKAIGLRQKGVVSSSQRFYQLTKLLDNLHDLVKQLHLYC

Which results are given for CC#C[C@]1(O)CC[C@H]2[C@@H]3CCC4=CC(=O)CCC4=C3[C@@H](c3ccc(N(C)C)cc3)C[C@@]21C [mifepristone]?
concentrations inducing transcription of transgenes [1]: a few nanomolar; elevation of transgene expression [2]: 1500 fold; affinity for the truncated receptor [3]: high affinity binding

Which “affinity for the truncated receptor” value [3] does the source give for CC(=O)[C@H]1CC[C@H]2[C@@H]3CCC4=CC(=O)CC[C@]4(C)[C@H]3CC[C@]12C [progesterone] here?
The value was “no affinity”.
